What was measured:
[1] = biological target: T1, Polyunsaturated fatty acid lipoxygenase ALOX15 (Homo sapiens, UniProt P16050)
T1 sequence (P16050 whole entry): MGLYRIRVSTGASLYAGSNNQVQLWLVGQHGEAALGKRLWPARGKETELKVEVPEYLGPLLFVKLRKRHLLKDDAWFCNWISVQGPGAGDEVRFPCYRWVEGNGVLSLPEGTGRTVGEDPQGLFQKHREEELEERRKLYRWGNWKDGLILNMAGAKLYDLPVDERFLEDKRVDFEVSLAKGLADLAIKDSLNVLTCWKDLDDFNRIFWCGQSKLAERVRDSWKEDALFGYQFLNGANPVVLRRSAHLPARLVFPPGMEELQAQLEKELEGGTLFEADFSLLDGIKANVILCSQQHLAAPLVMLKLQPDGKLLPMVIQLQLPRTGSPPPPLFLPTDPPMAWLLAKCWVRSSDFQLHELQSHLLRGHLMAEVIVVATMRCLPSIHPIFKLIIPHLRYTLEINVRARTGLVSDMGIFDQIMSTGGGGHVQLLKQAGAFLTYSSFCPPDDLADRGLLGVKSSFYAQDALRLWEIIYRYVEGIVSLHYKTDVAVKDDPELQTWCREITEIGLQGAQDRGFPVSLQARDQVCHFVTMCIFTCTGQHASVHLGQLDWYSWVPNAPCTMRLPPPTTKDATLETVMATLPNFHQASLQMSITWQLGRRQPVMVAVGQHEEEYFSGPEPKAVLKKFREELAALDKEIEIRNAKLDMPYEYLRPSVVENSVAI

[2] = in vitro; conditions: rat, liver microsomes

| Compound | IC50 [1] | half-life [2] |
| --- | --- | --- |
| COc1cccc(CNc2ccc(S(=O)(=O)Nc3ccccc3)cc2)c1O | 7.6 µM | – |
| COc1ccc2nc(NS(=O)(=O)c3ccc(NCc4cccc(OC)c4O)cc3)sc2c1 | 5.1 µM | – |
| COc1cccc(CNc2ccc(S(=O)(=O)Nc3nc4ccc(F)cc4s3)cc2)c1O | 4.5 µM | – |
| COc1cccc(CNc2ccc(S(=O)(=O)Nc3nc4ccccc4s3)cc2)c1O [VLX-1005] | – | 8 min |

From ChEMBL document CHEMBL3112506, “Synthesis and structure-activity relationship studies of 4-((2-hydroxy-3-methoxybenzyl)amino)benzenesulfonamide derivatives as potent and selective inhibitors of 12-lipoxygenase” (J Med Chem, 2014)
